According to publication PMC10620186, “Recognition and reprogramming of E3 ubiquitin ligase surfaces by α-helical peptides” (Nature Communications, 2023):

Tested on: MDM2:β-catenin ternary complex
Details: SPR ABA, immobilized MDM2^25–109, β-catenin up to […], 10 μM Helicon

SMILES	fold weaker affinity in SPR than in in-solution FP assays
CC[C@H](C)[C@H](NC(=O)[C@H](Cc1ccccc1)NC(=O)[C@H](Cc1ccc(O)cc1)NC(=O)[C@H](CC(C)C)NC(=O)[C@@H]1CSCC(=O)Nc2ccc(cc2)NC(=O)CSC[C@H](NC(=O)[C@H](CC(=O)O)NC(=O)[C@H](CCCNC(=N)N)NC(=O)[C@H](C)NC(=O)[C@H](CC(N)=O)NC(=O)[C@H](CCC(=O)O)NC(=O)[C@H](CO)NC(=O)[C@@H]2CCCN2C(C)=O)C(=O)N[C@@H](Cc2ccccc2)C(=O)N[C@@H](Cc2c[nH]c3ccccc23)C(=O)N[C@@H](C)C(=O)N[C@@H](C)C(=O)N[C@@H](Cc2c[nH]c3ccccc23)C(=O)N[C@@H](CC(=O)O)C(=O)N1)C(=O)N[C@@H](Cc1ccc(O)cc1)C(=O)N[C@@H](CCC(N)=O)C(N)=O [Helicon H333]	5- to 10 fold
CC[C@H](C)[C@H](NC(=O)[C@H](C)NC(=O)[C@H](CCC(N)=O)NC(=O)[C@H](CCC(N)=O)NC(=O)[C@H](CCC(=O)O)NC(=O)[C@H](CCSC)NC(=O)[C@@H]1CCCN1C(C)=O)C(=O)N[C@H]1CSCC(=O)Nc2ccc(cc2)NC(=O)CSC[C@@H](C(=O)N[C@@H](CC(C)C)C(=O)N[C@@H](C)C(=O)N[C@@H](CC(=O)O)C(=O)N[C@@H](CC(=O)O)C(=O)N[C@@H](Cc2c[nH]c3ccccc23)C(=O)N[C@H](C(N)=O)[C@@H](C)O)NC(=O)[C@H](CCSC)NC(=O)[C@H](Cc2c[nH]c3ccccc23)NC(=O)[C@H](C)NC(=O)[C@H](C)NC(=O)[C@H](CCC(N)=O)NC(=O)[C@H](Cc2ccccc2)NC1=O [Helicon H329]	5- to 10 fold
